Apparent affinities of Ab-95 variants for a coronavirus HR2 peptide

Data: MIT Lincoln Laboratory AlphaSeq set, Engelhart et al. 2022, doi:10.1038/s41597-022-01779-4, as distributed in FLAb.

All variants were tested on one target, the spike HR2 peptide PDVDLGDISGINAS (SARS-CoV-2).

The variants keep the heavy chain, the linker and the frameworks of Ab-95 (scFv order VH, a 15-residue (Gly4Ser)3 linker, VL).
VH: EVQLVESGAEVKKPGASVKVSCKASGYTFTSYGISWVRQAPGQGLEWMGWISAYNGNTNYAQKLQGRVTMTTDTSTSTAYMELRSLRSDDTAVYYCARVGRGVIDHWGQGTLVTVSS
VL: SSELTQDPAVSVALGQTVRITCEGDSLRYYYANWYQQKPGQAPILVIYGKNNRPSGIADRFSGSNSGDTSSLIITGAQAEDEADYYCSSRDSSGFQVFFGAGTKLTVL

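The starting antibody came from a phage panning campaign against this peptide. AAYL52 was designed without a model: most single CDR substitutions and a random sample of double and triple ones. In AlphaSeq, yeast of one mating type display the scFv and yeast of the other type display the target. Binding brings cells together so that they mate, and sequencing counts the barcode pairs among the diploids. A regression on co-assayed BCL2-family reference pairs converts the normalised counts of each replicate to an apparent Kd. Mating was done three times.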

Variants are written as CDR1, CDR2 and CDR3 of the light chain (limits as in the source). Parent: EGDSLRYYYAN, GKNNRPS, SSRDSSGFQVF. All variants listed here change G94 of the VL, counted from its first residue. Numbers give log10(Kd / nM), so 0 is 1 nM and 3 is 1 µM. Smaller is tighter. "ND" means that the variant was in the library but no mating with the target was seen in that replicate; the authors take this as a sign of poor binding, and no number exists. Parent in this assay: reference entry 2.31, copy in this library 2.25.

- EGDSLRYYYAG, GKNNRPS, SSRDSPFFQVF: 5.24, 4.73, 4.23
- EGDSLRYFRAN, GKNNRPS, SSRDSSFFQVF: ND, 3.19, ND
- EGDIMRYYYAN, GKNNRPS, SSRDSSPFQVF: 4.33, 4.26, ND
- EGDSLRYYYAN, GKNNRPS, SSRDSSEFQVF: 2.86, 2.31, 1.95
- EGDSLRYYYAN, GKNNHPS, SSADSSMFQVF: ND, 3.40, 2.62
- EGDSLRYYYAN, GKNNRPS, SSRWSNQFQVF: 1.74, 1.43, 1.19
- EGDSLRCYYAN, GKNNRPS, SSRDSSRFQVF: 4.92, ND, 4.03
- EGDSLRYYYAN, GKNNRMS, SSRDSYIFQVF: ND, 5.56, 3.86
- EGDSLRYHYAN, GKNNRPS, SSRDSSWFQVF: 1.54, 0.94, 0.79
- EGDSLRYYYMN, GKNNRSS, SSRDSSLFQVF: ND, ND, ND
- EGDSLRYYYAN, GKNNHPS, SSRDSSHCQVF: 2.94, 3.61, 2.91
- EGDSLRYYYAN, GKENRPS, SSRDSLIFQVF: 3.45, 3.34, ND
- EGDSLRYYYAN, GKNNRPS, SSSDASMFQVF: 3.88, ND, 3.39
- EGDSLRYYYAN, EKNNRPS, SSRISSPFQVF: 3.24, 3.49, ND
- EGDSMRYYYAN, GKNNRPS, NSRDSSRFQVF: ND, ND, ND
- EGDSLRYYYAN, GKFNRPS, SSRDGSSFQVF: 4.00, 3.60, ND
- EGDSLRYYYAN, GKNRRPS, SSNDSSKFQVF: ND, ND, ND
- EGDSLKYYYTN, GKNNRPS, SSRDSSCFQVF: 2.36, 2.23, 4.06
- EGDSLRYYYAN, GKHNRPS, DSRDSSSFQVF: 3.41, 3.23, 3.17
- EGDSLRYYYAN, GKNNRPL, SSRDSSMFQVF: 2.90, 3.56, ND
- EGDSLRYYEAN, GKNNRYS, SSRDSSKFQVF: 3.21, 2.84, 3.08
- EGDSLRYYYAN, GKNNRPS, SSRDSSFFQVW: 2.37, 3.83, 2.54
- EGDSLRYYYAN, DKNNRPS, SSRDSSWFQVF: 3.69, 3.83, ND
- EGDSLRYYYAN, GKNNRSS, SSRDSSYFQVF: 4.06, 3.30, 3.33
- EGDSLRYYYAN, GKNNRPS, SSRDSSWNQVR: ND, ND, ND
- EGDSLRYYYAN, GKNNRPS, SSRDSSQRQVQ: 2.70, 2.73, 2.06
- EGDSLRYYYAA, GKNNRPW, SSRDSSRFQVF: 3.85, 3.25, 3.81
- HGDRLRYYYAN, GKNNRPS, SSRDSSDFQVF: 2.06, 1.96, 2.23
- EGDSLRYYYAN, TKNNRPS, SSRDVSNFQVF: 2.66, 3.24, ND
- EGDSLRLYYAN, TKNNRPS, SSRDSSFFQVF: ND, ND, ND
- EGDSLRYYYAN, GSNNRPS, SSRDSIMFQVF: 5.57, 4.89, ND
- EGWSLRYYYAN, GKNNRPS, SSRDSSEFQVF: 3.82, ND, 4.59
- EIDSLRYYYFN, GKNNRPS, SSRDSSWFQVF: 4.29, ND, 4.25
- EGDSLRYYYAN, GKNNRPS, SDRDSSWFQVF: 3.60, 2.92, 2.59
- EEDSLRYYYAN, GKNNRPS, SSRDSSNFQVF: 4.46, 5.04, ND
- EGDSLRYAYAN, GKTNRPS, SSRDSSTFQVF: 3.65, 2.27, 2.53
- EGHSLRYYYAN, GKNNRPS, SSRDSSCFQVQ: 3.68, 2.61, 2.71

Excerpt, the first 5 entries:

{"CDR-L1": "EGDSLRYYYAG", "CDR-L2": "GKNNRPS", "CDR-L3": "SSRDSPFFQVF", "log10 Kd, replicates": "5.24, 4.73, 4.23"}
{"CDR-L1": "EGDSLRYFRAN", "CDR-L2": "GKNNRPS", "CDR-L3": "SSRDSSFFQVF", "log10 Kd, replicates": "ND, 3.19, ND"}
{"CDR-L1": "EGDIMRYYYAN", "CDR-L2": "GKNNRPS", "CDR-L3": "SSRDSSPFQVF", "log10 Kd, replicates": "4.33, 4.26, ND"}
{"CDR-L1": "EGDSLRYYYAN", "CDR-L2": "GKNNRPS", "CDR-L3": "SSRDSSEFQVF", "log10 Kd, replicates": "2.86, 2.31, 1.95"}
{"CDR-L1": "EGDSLRYYYAN", "CDR-L2": "GKNNHPS", "CDR-L3": "SSADSSMFQVF", "log10 Kd, replicates": "ND, 3.40, 2.62"}

Three control strains display no target. For library AAYL52, 28% of the pairings with them gave a signal, with a median of 3.91 and one signal in twenty below 2.90, so weak values seen in few replicates may be background.